System: collagen-induced arthritis (CIA)
Format: in vivo
Conditions: groups of 20 mice; 300 μg protein dose oral on Days −10, −7, −5 and −2
Protocol: These Examples were conducted to investigate the effectiveness of sturgeon notochord in protecting mice from collagen-induced arthritis (CIA). Female DBA/1 Lac J strain mice, approximately 6-8 weeks of age, were obtained from Jackson Laboratories of Bar Harbor, Maine. Three groups of 20 mice per group were acclimated to their surroundings for 7 days. A standard mouse chow (Purina Certified Mouse Chow #5015; 11% by wt. fat; collagen-free) and water were provided for ad libitum consumption to all animals.
On Days −10, −7, −5 and −2 prior to immunization, mice were sensitized by one of three test compositions; bovine serum albumin (BSA, a tolerogenically inert protein in CIA), cod skin gelatin, or sturgeon notochord. Bovine serum albumin (a protein derived from non-connective tissue) and cod skin gelatin (a protein derived from another connective tissue containing Type I collagen of a fish) served as negative controls. Sturgeon notochord was obtained from farm raised sturgeon and pulverized in liquid nitrogen. […]
Mice were inspected daily for the onset of CIA, characterized by erythema and edema. Limbs were clinically evaluated and graded on a scale of 0 to 3 (0, absence of arthritis; 1, mild swelling and erythema; 2, swelling and erythema of both tarsus and ankle; 3, ankylosis and bone deformity). […]

For bovine serum albumin [BSA], the “# of animals dead” value was 2.

— US6423347B1, “Method and product using sturgeon notochord for alleviating the symptoms of arthritis” (Abbott Laboratories, priority 1997, dated 2002)
